Organism: Homo sapiens
Experiment: Selectivity index, ratio of IC50 for recombinant human MAO-A expressed in baculovirus infected High 5 insect cells to IC50 for recombinant human MAO-B expressed in baculovirus infected High 5 insect cells
How it was run: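 Recombinant human MAO-A or MAO-B (7.5 µg/mL) with kynuramine substrate in 100 mM potassium phosphate pH 7.4 (KCl-isotonic), <4% DMSO, 30 min at 37 °C. Stopped with 2 N NaOH. Single-point inhibition at 10 µM. IC50 from six-concentration sigmoidal curves, triplicate. SI = IC50(MAO-A)/IC50(MAO-B).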

SMILES	Ratio IC50
O=C(/C=C/c1ccc(N2CCCCC2)cc1)c1ccc(OC(=O)N2CCCC2)cc1O	> 12.8
CCN(CC)c1ccc(/C=C/C(=O)c2ccc(OC(=O)N3CCCC3)cc2O)cc1	> 0.59
CCN(CC)C(=O)Oc1ccc(C(=O)/C=C/c2ccc(N(C)C)cc2)c(O)c1	> 0.87
CN(C)c1ccc(/C=C/C(=O)c2ccc(OC(=O)N3CCCC3)cc2O)cc1	> 35
O=C(/C=C/c1ccc(N2CCCC2)cc1)c1ccc(OC(=O)N2CCCC2)cc1O	> 14.1
